From US20140328940A1, “MODULATION OF AXON DEGENERATION” (Genentech, Inc., priority 2009, published 2014)

Tested on: dorsal root ganglion neurons
Test: EGFR ectodomain in NGF withdrawal degeneration of DRGs
Format: cell-based, mouse
Settings: 50 μg/ml; added 24 hours prior to or at the same time as anti-NGF
Experimental: Materials used in these studies include BD Biocoat PDL/Laminin coated glass 8 well chamber slides (BD 354688); L15 medium (Invitrogen 11415114); albumin from bovine serum (BSA) (Sigma A7906-500g); fetal bovine serum (Sigma F2442-100 ml); N3 supplement (see above); Fluoromount G (Electron Microscopy Sciences 17984-25); 24×60 min No. 1 coverslips (VWR 48393 106); monoclonal anti neuronal class III beta-tubulin (Covance MMS-435P); Nerve Growth Factor 2.5 S, mouse (Roche 11362348001) in Ham's F12; and Triton X-100 (Sigma T8787-100 ml). Solutions used in these experiments include 25 ml N3/F12 medium (23 ml of Ham's F12; 1 ml of N3 supplement; 1 ml of 1M glucose; 25 ng/ml of NGF) and 30% Sucrose/8% PFA (see above).
Ectodomains (R&D Systems) were resuspended in sterile filtered 0.1% BSA in PBS to 1 mg/ml. Mouse E13.5 embryos were dissected out and place into L15 medium. Using forceps, the ventral region of the embryo was opened, organs removed, ribs cut away, and spinal cord dissected out with DRGs attached. The spinal cords with DRGs attached were placed into L15 medium+5% goat serum on ice. DRGs were removed with a tungsten needle and the remaining spinal cord was disposed of 8 well slides were filled with N3-F12 plus 25 ng/ml NGF. DRGs were sectioned into halves. […]

With “EGFR ectodomain: EGFR ectodomain from R&D Systems” the “block of degeneration induced by NGF withdrawal” value was “does not block degeneration”.
